Laboratory results: article PMC10982999, “Structure-Guided Design and Optimization of Covalent VHL-Targeted Sulfonyl Fluoride PROTACs” (Journal of Medicinal Chemistry, 2024)

Columns and labels:
[1] = biological target: T1, BRD4 (HEK293 HiBiT-BRD4 Cln3 cells) (Homo sapiens, UniProt O60885); experiment: BRD4 HiBiT degradation assay; details: VH032 25 or 50 μM, 6 h
[2] = biological target: T1, BRD4 (HEK293 HiBiT-BRD4 Cln3 cells); assay type: cell-based

## Cc1ncsc1-c1ccc(CNC(=O)[C@@H]2C[C@@H](O)CN2C(=O)[C@@H](NC(=O)COCCOCCOCCNC(=O)C[C@@H]2N=C(c3ccc(Cl)cc3)c3c(sc(C)c3C)-n3c(C)nnc32)C(C)(C)C)cc1 [MZ-1, reference compound]
[1]
  BRD4 degradation in presence of competing VH032: significantly more affected
[2]
  relative decrease in degradation activity after washout: 48%
